The nature of this test: GSH activity assessed as GSH adduct formation by measuring GSH/IS ratio.

Each structure is given as a SMILES string.

`Cc1ccc(-n2nccn2)c(C(=O)N2CCN(c3nc4cc(Cl)ccc4o3)CC[C@H]2C)c1` [SUVOREXANT]: the Ratio was 0.1.
